Test results as given in paper PMC6376029, “Diversity within the adenovirus fiber knob hypervariable loops influences primary receptor interactions” (Nature Communications, 2019).

Columns and labels:
[1] = target: T1, Recombinant Human CD46 Protein (His Tag) (human, UniProt P15529 35-343); test: SPR
T1 chain: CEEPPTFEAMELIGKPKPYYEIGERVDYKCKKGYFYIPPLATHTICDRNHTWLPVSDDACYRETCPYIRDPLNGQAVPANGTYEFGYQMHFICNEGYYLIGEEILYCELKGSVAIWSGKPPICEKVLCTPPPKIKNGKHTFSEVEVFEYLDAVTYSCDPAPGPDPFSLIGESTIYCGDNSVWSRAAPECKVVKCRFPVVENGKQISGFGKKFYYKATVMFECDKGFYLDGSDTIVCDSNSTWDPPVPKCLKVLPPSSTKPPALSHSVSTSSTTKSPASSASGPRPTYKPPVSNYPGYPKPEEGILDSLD

[2] = target: T2, Recombinant Human CXADR Fc Chimera Protein (CAR) (human, UniProt P78310); test: SPR
T2 chain: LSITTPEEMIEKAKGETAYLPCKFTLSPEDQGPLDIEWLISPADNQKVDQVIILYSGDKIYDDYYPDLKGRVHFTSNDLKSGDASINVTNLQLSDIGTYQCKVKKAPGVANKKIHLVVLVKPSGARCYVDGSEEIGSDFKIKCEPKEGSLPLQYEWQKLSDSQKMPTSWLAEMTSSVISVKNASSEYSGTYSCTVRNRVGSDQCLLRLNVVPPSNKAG

B1: HAdV-D26 fiber-knob protein (domain or fragment)
chain: RRTLWTTPDTSPNCKMSTEKDSKLTLTLTKCGSQVLGNVSLLAVTGEYHQMTATTKKDVKISLLFDENGILLPSSSLSKDYWNYRSDDSIVSQKYNNAVPFMPNLTAYPKPSAQNAKNYSRTKIISNVYLGALTYQPVIITIAFNQETENGCAYSITFTFTWQKDYSAQQFDVTSFTFSYLTQE
Kd [1]: 50.8 µM | koff [2]: 0.0074 s⁻¹
